Measurements published in article PMC2879712 (Journal of cellular biochemistry, 2010).

Target: the molecule itself
Assay: negative-stain electron microscopy

B1: mAbGB3.1-enriched sRAGE^HeLa (receptor, human, UniProt Q15109 23-342, looked up)
chain: AQNITARIGEPLVLKCKGAPKKPPQRLEWKLNTGRTEAWKVLSPQGGGPWDSVARVLPNGSLFLPAVGIQDEGIFRCQAMNRNGKETKSNYRVRVYQIPGKPEIVDSASELTAGVPNKVGTCVSEGSYPAGTLSWHLDGKPLVPNEKGVSVKEQTRRHPETGLFTLQSELMVTPARGGDPRPTFSCSFSPGLPRHRALRTAPIQPRVWEPVPLEEVQLVVEPEGGAVAPGGTVTLTCEVPAQPSPQIHWMKDGVPLPLPPSPVLILPEIGPQDQGTYSCVATHSSHGPQESRAVSISIIEPGEEGPTAGSVGGSGLGTLA
modifications: N-glycans enriched for carboxylated, multiantennary glycans
stoichiometry N: ≥ 4
